The species entered for the experiment is Homo sapiens. The experiment can be described thus: Selectivity index, ratio of IC50 for human MAO-A to IC50 for human MAO-B.

This is an account of results in ChEMBL document CHEMBL3734746, “Monoamine oxidase inhibitory activities of heterocyclic chalcones” (Bioorg Med Chem Lett, 2015).

`O=C(/C=C/c1ccc(C(F)(F)F)cc1)c1ccc[nH]1`: the Ratio IC50 turned out to be 4.6.
